From patent publication US12440495B2, “Combination therapy for treatment of myeloproliferative neoplasms” (Incyte Corporation, priority 2020, dated 2025)

Tested on: MPLW515L expressing bone marrow
Assay: MPLW515L mouse model of MPN
Settings: ruxolitinib 60 mg/kg BID, Compound 1 10 mg/kg QD, combination

## N#CC[C@H](C1CCCC1)n1cc(-c2ncnc3[nH]ccc23)cn1 [ruxolitinib, (3R)-3-cyclopentyl-3-[4-(7H-pyrrolo[2,3-d]pyrimidin-4-yl)-1H-pyrazol-1-yl]propanenitrile, reference compound]
  Fa (fraction affected, change vs vehicle), MPL SPL: 0.5858
  MPL SPL (sizes of the spleens): 0.3367 grams
